{"sequences": {"note": "The chains behind the UniProt entries cited, without tags or fusion partners.", "UniProt Q00975, whole entry, looked up": "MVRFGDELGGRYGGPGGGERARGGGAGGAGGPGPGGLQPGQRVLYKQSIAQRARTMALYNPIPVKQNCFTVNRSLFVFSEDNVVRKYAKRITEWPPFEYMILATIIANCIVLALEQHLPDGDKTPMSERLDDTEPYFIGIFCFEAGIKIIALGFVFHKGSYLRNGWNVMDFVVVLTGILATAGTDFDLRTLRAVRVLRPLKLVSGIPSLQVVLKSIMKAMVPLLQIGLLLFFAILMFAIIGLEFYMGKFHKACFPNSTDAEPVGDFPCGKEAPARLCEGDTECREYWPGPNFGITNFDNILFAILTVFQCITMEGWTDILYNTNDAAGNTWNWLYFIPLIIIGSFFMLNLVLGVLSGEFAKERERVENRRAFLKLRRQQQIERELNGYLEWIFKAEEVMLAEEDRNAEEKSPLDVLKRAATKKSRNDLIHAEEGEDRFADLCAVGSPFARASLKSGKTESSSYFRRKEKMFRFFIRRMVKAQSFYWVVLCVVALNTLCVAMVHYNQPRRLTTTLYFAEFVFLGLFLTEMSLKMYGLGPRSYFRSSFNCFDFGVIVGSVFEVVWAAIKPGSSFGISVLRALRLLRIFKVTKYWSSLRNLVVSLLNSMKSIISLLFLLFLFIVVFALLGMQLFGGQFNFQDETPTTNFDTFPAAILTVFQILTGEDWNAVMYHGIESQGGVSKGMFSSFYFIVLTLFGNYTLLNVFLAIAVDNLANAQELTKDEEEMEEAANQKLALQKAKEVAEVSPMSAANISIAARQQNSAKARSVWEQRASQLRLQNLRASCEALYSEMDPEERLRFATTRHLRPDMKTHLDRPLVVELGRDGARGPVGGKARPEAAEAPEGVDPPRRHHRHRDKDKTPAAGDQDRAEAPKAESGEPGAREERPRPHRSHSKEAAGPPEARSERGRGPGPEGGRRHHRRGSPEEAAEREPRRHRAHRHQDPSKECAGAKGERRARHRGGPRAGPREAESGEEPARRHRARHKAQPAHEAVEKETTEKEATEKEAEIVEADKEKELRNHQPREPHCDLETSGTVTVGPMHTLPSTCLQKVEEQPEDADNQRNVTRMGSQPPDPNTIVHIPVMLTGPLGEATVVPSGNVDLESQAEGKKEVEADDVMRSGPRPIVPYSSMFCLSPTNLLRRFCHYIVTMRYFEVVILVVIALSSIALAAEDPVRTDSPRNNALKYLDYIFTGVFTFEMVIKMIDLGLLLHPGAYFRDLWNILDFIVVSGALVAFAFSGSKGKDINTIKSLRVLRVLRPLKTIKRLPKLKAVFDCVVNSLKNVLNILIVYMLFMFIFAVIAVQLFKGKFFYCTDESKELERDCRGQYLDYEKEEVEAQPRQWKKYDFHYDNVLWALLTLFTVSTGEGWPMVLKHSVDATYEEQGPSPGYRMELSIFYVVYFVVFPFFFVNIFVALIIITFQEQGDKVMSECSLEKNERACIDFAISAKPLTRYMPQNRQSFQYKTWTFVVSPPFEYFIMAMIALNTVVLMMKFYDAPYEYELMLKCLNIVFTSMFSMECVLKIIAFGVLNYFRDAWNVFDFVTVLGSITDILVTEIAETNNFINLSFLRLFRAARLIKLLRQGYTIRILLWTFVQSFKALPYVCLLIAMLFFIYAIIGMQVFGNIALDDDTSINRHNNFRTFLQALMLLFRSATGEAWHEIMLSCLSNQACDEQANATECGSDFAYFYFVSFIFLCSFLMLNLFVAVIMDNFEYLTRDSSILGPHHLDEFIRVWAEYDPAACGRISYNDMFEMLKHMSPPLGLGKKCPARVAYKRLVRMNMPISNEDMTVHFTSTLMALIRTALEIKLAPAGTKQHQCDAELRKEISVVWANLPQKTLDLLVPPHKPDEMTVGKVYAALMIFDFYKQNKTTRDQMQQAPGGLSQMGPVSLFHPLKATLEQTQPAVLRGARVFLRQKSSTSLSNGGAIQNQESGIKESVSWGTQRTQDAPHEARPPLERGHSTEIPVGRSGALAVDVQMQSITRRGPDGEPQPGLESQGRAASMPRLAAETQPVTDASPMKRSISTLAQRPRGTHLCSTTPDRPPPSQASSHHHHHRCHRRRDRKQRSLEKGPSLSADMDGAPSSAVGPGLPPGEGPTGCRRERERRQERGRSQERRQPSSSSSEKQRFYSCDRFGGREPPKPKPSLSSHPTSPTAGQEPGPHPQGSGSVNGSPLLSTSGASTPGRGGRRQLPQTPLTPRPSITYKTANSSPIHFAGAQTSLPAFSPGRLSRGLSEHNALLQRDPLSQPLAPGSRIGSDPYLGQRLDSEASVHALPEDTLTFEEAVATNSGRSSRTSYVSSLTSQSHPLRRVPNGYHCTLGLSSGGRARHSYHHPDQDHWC"}, "source": "PubChem BioAssay AID2073", "about": "(Sanford-Burnham Center for Chemical Genomics, 2009)", "note": "The entries are a selection whose mix differs from that of the whole data set. Entries with a potency or affinity are not part of this list. Activity calls are given as the source filed them. No stated cut-off is given here; in the data, active means inhibition mostly above about 51% (no sharp cut-off); inconclusive means no clear call, values can overlap the other calls; inactive means mostly below about 53%."}
{"target": "Voltage-dependent N-type calcium channel subunit alpha-1B (Homo sapiens) (UniProt Q00975)", "assay": "disruptors of CaV2.2 binding to Mint1 – biochemical, HTRF (AID 2073)", "conditions": "HTRF protein-protein interaction, Mint1-CaV2.2; at 20 µM; hits give high values"}
{"smiles": "O=P1(Nc2ccccn2)COc2ccccc2OC1", "inhibition": "inactive: -1%"}
{"smiles": "CCOP(=O)(Nc1ccc(C)cn1)OCC", "inhibition": "inactive: 15.4%"}
{"smiles": "CC(C)(C)C(=O)NC(Sc1ncccn1)C(Cl)(Cl)Cl", "note": "(stereo not given)", "inhibition": "inactive: -53.9%"}
{"smiles": "Clc1n[nH]nc1-c1nn[nH][15n]1", "inhibition": "inactive: 6.5%"}
{"smiles": "CN(C(=O)Cc1ccc(Cl)c(Cl)c1)[C@@H]1CCCC[C@H]1N1CCCC1", "inhibition": "inactive: -3.3%"}
{"smiles": "CC(C)/C=N\\N=C(\\N)N[N+](=O)[O-]", "inhibition": "inactive: 6.8%"}
{"smiles": "O=[As](O)(c1ccccc1Br)c1ccccc1Br", "inhibition": "inactive: 10.1%"}
{"smiles": "COP1(=S)c2c(C)nn(CCC#N)c2N=C(c2ccc(F)cc2)N1C", "note": "(stereo not given)", "inhibition": "inactive: -8%"}
{"smiles": "O=C(Nc1ccncc1[N+](=O)[O-])c1ccc([N+](=O)[O-])cc1[N+](=O)[O-]", "inhibition": "inactive: 11.9%"}
{"smiles": "O=C(COc1ccccc1)OC1CN2CCC1CC2", "note": "(stereo not given)", "inhibition": "inactive: -2%"}
{"smiles": "O=C(OC1CN2CCC1CC2)c1cccc([N+](=O)[O-])c1", "note": "(stereo not given)", "inhibition": "inactive: 2.9%"}
{"smiles": "CCOC(=O)c1ccc(NC(=O)C(C)(CCl)SC)cc1", "note": "(stereo not given)", "inhibition": "inactive: -1.8%"}
{"smiles": "CCC(C)N(CC(C)C)C(=S)SC(NC(C)=O)C(Cl)(Cl)Cl", "note": "(stereo not given)", "inhibition": "inactive: -20.6%"}
{"smiles": "CCOC(=O)Nc1ccc([As](=O)(O)O)c(O)c1", "inhibition": "inactive: 10.3%"}
{"smiles": "Cc1cc(SC(NC(=O)c2ccccc2)C(Cl)(Cl)Cl)nc(C(C)C)n1", "note": "(stereo not given)", "inhibition": "inactive: -1.1%"}
{"smiles": "CCCCOc1ccc(C(=O)NCC2(N3CCCCC3)CCCCC2)cc1OC", "inhibition": "inactive: 28%"}
{"smiles": "CCOC(=O)Nc1cccc([As](=O)(O)O)c1", "inhibition": "inactive: 10.3%"}
{"smiles": "Cc1cc(SC(NC=O)C(Cl)(Cl)Cl)ncn1", "note": "(stereo not given)", "inhibition": "inactive: -1.4%"}
{"smiles": "O=P(Nc1ccccn1)(c1cccc2ccccc12)c1cccc2ccccc12", "inhibition": "inactive: 0.2%"}
{"smiles": "O=[N+]([O-])c1ccc(Nc2ccc(Oc3ccc([N+](=O)[O-])cc3[N+](=O)[O-])cc2)c([N+](=O)[O-])c1", "inhibition": "inactive: 19%"}
{"smiles": "O=[As](O)(c1ccc(O)cc1)c1ccccc1O", "inhibition": "inactive: -2.6%"}
{"smiles": "C[As](=O)(O)c1cccc(C(=O)O)c1", "inhibition": "inactive: 3.7%"}
{"smiles": "Cc1ccc(OP(=O)(Nc2ccc([N+](=O)[O-])cn2)Oc2ccc(C)cc2)cc1", "inhibition": "inactive: 17.9%"}
{"smiles": "Cc1ccc2nc3c(c(C)c2c1)CC(C(Cl)Cl)S3", "note": "(stereo not given)", "inhibition": "inactive: 13%"}
{"smiles": "ClCCSc1nnc(-c2cccnc2)o1", "inhibition": "inactive: 5.5%"}
{"smiles": "CC(C)c1ccc(OP(=O)(Nc2ccccn2)Oc2ccccc2F)cc1", "note": "(stereo not given)", "inhibition": "inactive: 22.1%"}
{"smiles": "O=[N+]([O-])c1cc([N+](=O)[O-])c(-c2ccn[nH]2)s1", "inhibition": "inactive: 21%"}
{"smiles": "CCN(CC)C(=S)SC(NC=O)C(Cl)(Cl)Cl", "note": "(stereo not given)", "inhibition": "inactive: -21.1%"}
{"smiles": "CC(C)NC(=O)NP(=O)(Oc1ccccc1)Oc1ccccc1", "inhibition": "inactive: 7.3%"}
{"smiles": "Cc1c2c(nc3ccccc13)SC(C(Cl)Cl)C2", "note": "(stereo not given)", "inhibition": "inactive: 17.7%"}
{"smiles": "Cc1cc(=O)[nH]c(N[N+](=O)[O-])n1", "inhibition": "inactive: -0.8%"}
{"smiles": "O=C(OC1CN2CCC1CC2)C12CC3CC(CC(C3)C1)C2", "note": "(stereo not given)", "inhibition": "inactive: -3.9%"}
{"smiles": "COc1cc(I)ccc1[As](=O)(O)O", "inhibition": "inactive: 1%"}
{"smiles": "COc1ccc2nc(NP(=O)(c3ccccc3)c3ccccc3)sc2c1", "inhibition": "inactive: -2.4%"}
{"smiles": "COc1ccc(N/C(=N/P(=O)(N2CCOCC2)N2CCOCC2)N2CCOCC2)cc1", "inhibition": "inactive: -1.9%"}
